Data as given in patent US6642355B2, “Endothelin-antagonizing peptide” (priority 1991, dated 2003).

Assays:
ddy strain mice = conditions: intraperitoneal, mortality seven days after administration
endothelin-1 = test: Effect on lowering intracellular guanosine-3',5'-cyclic monophosphate concentration increased by endothelin; type: cell-based; conditions: 3 μg/ml compound
Excerpt: Evaluation was made using the method of Ishii et al., described in the Journal of Pharmacology and Experimental Therapeutics, 259, 3, 1102-1108 (1991).

endothelin receptor [1] = test: Endothelin receptor-antagonizing activity: 125I-endothelin-1 binding to bovine lung membrane fraction; conditions: read-out: concentration (IC50) causing 50% inhibition of endothelin-1 binding, 125I-endothelin-1, 25° C., 2 hours
Protocol: Bovine lung tissue was homogenized at 4° C. using POLYTRON (type PT10/35, manufactured by Kinematica GmbH Co.) in a buffer solution A (pH 8.3) comprising 1 mM NaHCO3, 5 mM ethylenediaminetetraacetic acid, 5 μg/ml leupeptin, 5 μg/ml pepstatin A and 40 μM phenylmethylsulfonyl fluoride. […] The inhibition rate against endothelin receptor binding activity was calculated according to the following equation. […] A: […]

[2] = tested on: cell line A10 (ATCC CRL 1476); test: Effect on lowering intracellular calcium concentration increased by endothelin (fura-2 fluorescence); type: cell-based, rat; conditions: 1 μg/ml compound, endothelin 0.3 nM, A10 cells
Protocol: In this test, cell line A10 (ATCC CRL 1476) taken from an aortic unstriated muscle of a rat's breast was suspended in a Dulbecco's modified Eagle culture medium (product of Nissui Seiyaku Co.) containing 10% fetal calf serum (product of Hyclone Co.). The suspended cells were plated on a glass coverslip with a silicon rubber wall for 3 days. The cultured cells were washed with a physiological experimental solution A (pH 7.4) comprising 130 mM NaCl, 2.5 mM KCl, 1 mM CaCl2, 1 MM MgSO4, 1 mM NaH2PO4, 10 mM N-(2-hydroxyethyl)-piperazine-N′-2-ethanesulfonic acid (HEPES), 15 mM glucose and 2 mg/ml bovine serum albumin (BSA) (product of Sigma Co.). Then, 10 μM of fura-2/AM (calcium fluorescent indicator, product of Dojin Kagaku Laboratory) was added to the cells and the mixture was incubated for one hour.
The intracellular calcium concentration of the individual cells and the change in the concentration was determined by measuring the fluorescence intensity at 510 nm, exposed to ultraviolet light at excitation wavelengths 340 nm and 380 nm, with an ARGUS200 system (product of Hamamatsu Photonics Co.).

endothelin receptor [3] = target: T1, endothelin receptor (Bos taurus, UniProt P28088); test: Endothelin receptor-antagonizing effect: 125I-endothelin-1 binding to bovine cerebellar tissue membrane fraction
T1 construct: from tissue; host or cells: bovine cerebellar membrane fraction
T1 sequence (P28088 27-441): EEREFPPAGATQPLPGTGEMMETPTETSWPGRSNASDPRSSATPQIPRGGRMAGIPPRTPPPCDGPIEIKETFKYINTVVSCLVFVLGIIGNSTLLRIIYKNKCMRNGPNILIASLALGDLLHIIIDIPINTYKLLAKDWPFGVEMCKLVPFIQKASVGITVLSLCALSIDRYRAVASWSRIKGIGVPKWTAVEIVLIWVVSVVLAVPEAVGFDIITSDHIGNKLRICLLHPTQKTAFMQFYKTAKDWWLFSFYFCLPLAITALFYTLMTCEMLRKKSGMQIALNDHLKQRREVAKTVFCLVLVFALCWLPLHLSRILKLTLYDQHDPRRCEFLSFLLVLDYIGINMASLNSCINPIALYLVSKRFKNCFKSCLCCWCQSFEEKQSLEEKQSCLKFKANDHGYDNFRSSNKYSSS

[4] = target: endothelin receptor of bovine lung tissue (membrane fraction) (bovine); test: 125I-endothelin-1 displacement, bovine lung membrane fraction, filter binding
[5] = target: endothelin receptor of bovine cerebellar tissue (membrane fraction) (bovine); test: 125I-endothelin-1 displacement, bovine cerebellar membrane fraction

Molecule: C[C@@H]1NC(=O)[C@H]([C@@H](C)O)NC(=O)CNC(=O)[C@H](Cc2c[nH]cn2)NC(=O)[C@H](Cc2c[nH]c3ccccc23)NC(=O)[C@H](CC(N)=O)NC(=O)CNC(=O)C[C@@H](C(=O)N[C@@H](Cc2c[nH]c3ccccc23)C(=O)N[C@@H](Cc2ccccc2)C(=O)N[C@@H](Cc2ccccc2)C(=O)N[C@@H](CC(N)=O)C(=O)N[C@@H](Cc2ccc(O)cc2)C(=O)N[C@@H](Cc2ccc(O)cc2)C(=O)N[C@@H](Cc2c[nH]c3ccccc23)C(=O)O)NC(=O)[C@@H]2CCCN2C1=O [Compound I-1]
- minimum lethal dose (MLD) (ddy strain mice): ≥ 300 mg/kg
- amount of increase in intracellular guanosine-3',5'-cyclic monophosphate concentration relative to that due to only 1 nM endothelin (endothelin-1): 0%
- IC50 (endothelin receptor [1]): 25 nM
- increase ratio of intracellular calcium concentration of the test group to the increase of the control group [2]: 46%

Molecule: CC[C@H](C)[C@H](NC(=O)[C@@H](NC(=O)[C@H](CC(=O)O)NC(=O)[C@H](CCC(N)=O)NC(=O)[C@H](Cc1c[nH]cn1)NC(=O)[C@H](C)NC(=O)[C@H](Cc1ccccc1)NC(=O)[C@H](Cc1ccc(O)cc1)NC(=O)[C@H](CC(C)C)NC(=O)[C@H](Cc1c[nH]c2ccccc12)NC(=O)[C@@H]1CC(=O)NCC(=O)N[C@@H](CC(N)=O)C(=O)N[C@@H](Cc2c[nH]c3ccccc23)C(=O)N[C@@H](Cc2c[nH]cn2)C(=O)NCC(=O)N[C@@H]([C@@H](C)O)C(=O)N[C@@H](C)C(=O)N2CCC[C@H]2C(=O)N1)C(C)C)C(=O)N[C@@H](Cc1c[nH]c2ccccc12)C(=O)O [Compound I-28]
- IC50 (endothelin receptor [3]): 3.8 nM

Molecule: CC[C@H](C)[C@H](NC(=O)[C@H](CC(=O)O)NC(=O)[C@H](CC(C)C)NC(=O)[C@H](Cc1c[nH]cn1)NC(=O)[C@H](C)NC(=O)[C@H](Cc1ccc(O)cc1)NC(=O)[C@H](Cc1ccc(O)cc1)NC(=O)[C@@H](NC(=O)[C@H](Cc1c[nH]c2ccccc12)NC(=O)[C@@H]1CC(=O)NCC(=O)N[C@@H](CC(N)=O)C(=O)N[C@@H](Cc2c[nH]c3ccccc23)C(=O)N[C@@H](Cc2c[nH]cn2)C(=O)NCC(=O)N[C@@H]([C@@H](C)O)C(=O)N[C@@H](C)C(=O)N2CCC[C@H]2C(=O)N1)C(C)C)C(=O)N[C@H](C(=O)N[C@@H](Cc1c[nH]c2ccccc12)C(=O)O)[C@@H](C)CC [Compound I-34]
- IC50 (endothelin receptor [3]): 2.5 nM

Molecule: CC[C@H](C)[C@H](NC(=O)[C@H](CC(=O)O)NC(=O)[C@H](CC(C)C)NC(=O)[C@H](Cc1c[nH]cn1)NC(=O)[C@H](C)NC(=O)[C@H](Cc1ccccc1)NC(=O)[C@H](Cc1ccc(O)cc1)NC(=O)[C@@H](NC(=O)[C@H](Cc1c[nH]c2ccccc12)NC(=O)[C@@H]1CC(=O)NCC(=O)N[C@@H](CC(=O)O)C(=O)N[C@@H](Cc2c[nH]c3ccccc23)C(=O)N[C@@H](Cc2c[nH]cn2)C(=O)NCC(=O)N[C@@H]([C@@H](C)O)C(=O)N[C@@H](C)C(=O)N2CCC[C@H]2C(=O)N1)C(C)C)C(=O)N[C@H](C(=O)N[C@@H](Cc1c[nH]c2ccccc12)C(=O)O)[C@@H](C)CC [Compound I-41]
- IC50 (endothelin receptor [3]): 0.25 nM

Molecule: CC[C@H](C)[C@H](NC(=O)[C@H](CC(=O)O)NC(=O)[C@H](CC(C)C)NC(=O)[C@H](Cc1c[nH]cn1)NC(=O)[C@H](C)NC(=O)[C@H](Cc1ccccc1)NC(=O)[C@H](Cc1ccc(O)cc1)NC(=O)[C@@H](NC(=O)[C@H](Cc1c[nH]c2ccccc12)NC(=O)[C@@H]1CC(=O)NCC(=O)N[C@@H](CC(N)=O)C(=O)N[C@@H](Cc2c[nH]c3ccccc23)C(=O)N[C@@H](CCCCN)C(=O)NCC(=O)N[C@@H]([C@@H](C)O)C(=O)N[C@@H](C)C(=O)N2CCC[C@H]2C(=O)N1)C(C)C)C(=O)N[C@H](C(=O)N[C@@H](Cc1c[nH]c2ccccc12)C(=O)O)[C@@H](C)CC [Compound I-42]
- IC50 (endothelin receptor [3]): 0.38 nM

B1: Compound (I-1) (peptide)
peptide: GNWHGTAPDWFFNYYW
modifications: lactam: N-terminal amino group of Gly 1 joined to the side-chain carboxyl of Asp 9 (X1-Y1 single bond of formula (I)); inferred from formula (I) and Examples 5, 14 and 15, the drawing is not in the text
- IC50 [4]: 25 nM

Molecule: GNWHGTAPDWVYFAHLDIIW (lactam Gly 1 N-terminus to Asp 9 side chain, as in Compound (I-15)) [Compound (I-25)]
- IC50 [5]: 0.24 nM

Molecule: GNWHGTAPDWLYFAHQDVIW (lactam Gly 1 N-terminus to Asp 9 side chain, as in Compound (I-15)) [Compound (I-28)]
- IC50 [5]: 3.8 nM

Molecule: GNWHGTAPDWVYYAHLDIIW (lactam Gly 1 N-terminus to Asp 9 side chain, as in Compound (I-15)) [Compound (I-34)]
- IC50 [5]: 2.5 nM

B2: Compound (I-41) (peptide)
peptide: GDWHGTAPDWVYFAHLDIIW
modifications: lactam Gly 1 N-terminus to Asp 9 side chain; all benzyl and nitrobenzyl groups removed
- IC50 [5]: 0.25 nM

B3: Compound (I-42) (peptide)
peptide: GNWKGTAPDWVYFAHLDIIW
modifications: lactam Gly 1 N-terminus to Asp 9 side chain; Z, benzyl and nitrobenzyl groups removed
- IC50 [5]: 0.38 nM
